Publication PMC11532494 (Nature Communications, 2024)

The chains behind the UniProt entries cited, without tags or fusion partners. Residues count along the entry.
UniProt A0A067XIQ6, 1-369: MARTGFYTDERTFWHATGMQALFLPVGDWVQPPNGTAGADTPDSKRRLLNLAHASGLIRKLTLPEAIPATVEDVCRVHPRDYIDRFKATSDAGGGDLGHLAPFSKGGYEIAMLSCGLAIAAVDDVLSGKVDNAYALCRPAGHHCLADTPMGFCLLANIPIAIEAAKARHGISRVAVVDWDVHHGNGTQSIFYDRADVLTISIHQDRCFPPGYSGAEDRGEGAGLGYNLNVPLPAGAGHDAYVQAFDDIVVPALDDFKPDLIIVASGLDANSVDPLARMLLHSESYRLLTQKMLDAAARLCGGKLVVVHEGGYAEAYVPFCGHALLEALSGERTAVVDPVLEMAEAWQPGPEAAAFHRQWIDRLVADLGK

Biological target: RwDmhA (1b) (Rhizorhabdus wittichii, UniProt A0A067XIQ6)
Assay: biochemical
Settings: inhibitor 10 µM, individual replicates

CC(/C=C/C(=O)NO)=C\[C@@H](C)C(=O)c1ccc(N(C)C)cc1 [TSA, trichostatin A]
remaining activity at 10 µM: 7.1%
